Values quoted from earlier work as cited in paper PMC5428233, “Cross-beta nanostructures based on dinaphthylalanine Gd-conjugates loaded with doxorubicin” (Scientific Reports, 2017).
Several values for one entry are separate records, joined by “and”; a condition that tells them apart may be missing. Equal values may be shown once.

Set-up: method as in doi:10.1002/adfm.201502458
Details: previously found value; cited from earlier work

Question: For Gd-DOTA-L6-F4, which “critical aggregation concentration (CAC)” value is on record?
Answer: 5.1·10^−5 M and 0.076 mg/mL
